According to patent US20200345725A1, “Methods and Compositions for Treating Cancer” (Omeros Corporation, priority 2019, published 2020):

Molecular target: T1, A2bR (Homo sapiens, UniProt P29275)
T1 construct: host or cells: HEK293
T1 sequence (P29275 1-332): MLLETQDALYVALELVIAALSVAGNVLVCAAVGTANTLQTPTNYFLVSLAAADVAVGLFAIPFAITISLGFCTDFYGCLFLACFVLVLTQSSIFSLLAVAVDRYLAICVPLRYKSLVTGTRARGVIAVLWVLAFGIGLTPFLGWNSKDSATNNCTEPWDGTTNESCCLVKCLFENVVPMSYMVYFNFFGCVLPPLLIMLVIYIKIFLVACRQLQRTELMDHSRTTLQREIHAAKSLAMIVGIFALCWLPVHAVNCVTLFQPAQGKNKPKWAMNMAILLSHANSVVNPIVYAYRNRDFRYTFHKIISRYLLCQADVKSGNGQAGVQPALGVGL
Assay: Cre-luciferase reporter assay, HEK293 cells transfected with A2bR
Assay type: cell-based
Conditions: overnight incubation; read-out: A2B (IC50 nM)

**Q.** How did the IC50 turn out when CCCn1c(=O)c2[nH]c(-c3ccc(OCC(=O)Nc4ccc(C#N)cc4)cc3)nc2n(CCC)c1=O [MRS-1754] was run?
**A.** 32 nM
